The text below walks through data of US20030203406.

For this data set, the system named is MAS tripeptide (Met-Ala-Ser).

For “recombinant human MetAP-1 expressed in Sf9 insect cells”, the Km stood at 8.5 mM and the kcat came out at 0.75 s⁻¹.

What is called Km is the substrate concentration at which the rate is half of its maximum. The kcat is the maximal rate divided by the concentration of active sites.
